# Ab-95 light chain CDR variants: yeast mating affinities

All variants were tested on one target, the spike HR2 peptide PDVDLGDISGINAS (SARS-CoV-2).

The variants keep the heavy chain, the linker and the frameworks of Ab-95 (scFv order VH, a (GGGGS)3 linker, VL).
VH: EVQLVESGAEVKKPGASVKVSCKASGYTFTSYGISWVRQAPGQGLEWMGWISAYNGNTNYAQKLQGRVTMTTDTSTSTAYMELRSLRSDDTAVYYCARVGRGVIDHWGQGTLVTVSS
VL: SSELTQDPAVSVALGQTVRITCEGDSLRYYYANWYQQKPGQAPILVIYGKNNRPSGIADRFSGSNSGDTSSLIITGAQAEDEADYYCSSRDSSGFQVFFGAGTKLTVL

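The parent was found by panning a naive human phage display library on the peptide. In library AAYL52, one, two or three CDR residues were substituted; doubles and triples were drawn at random. Affinity was read by AlphaSeq, a pooled yeast mating assay with surface-displayed partners. Binding brings cells together so that they mate, and sequencing counts the barcode pairs among the diploids. A regression on co-assayed BCL2-family reference pairs converts the normalised counts of each replicate to an apparent Kd. Mating was done three times.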

The parent's light chain CDRs are EGDSLRYYYAN, GKNNRPS, SSRDSSGFQVF; each variant's own CDRs replace them letter for letter. Numbers give log10(Kd / nM), so 0 is 1 nM and 3 is 1 µM. Smaller is tighter. Averages over replicates are reported, and they cover detected replicates only. "not detected" means that the variant was in the library but no mating with the target was seen in any replicate; the authors take this as a sign of poor binding, and no number exists. For reference, the parent read 2.31 as the reference entry and 2.25 as a member of this library.

| # | mean log10 Kd (nM) | seen in | CDR-L1 | CDR-L2 | CDR-L3 |
|---|---|---|---|---|---|
| 1 | 2.98 | 2/3 | EGDSLRYYDAN | GKNNRPS | SSRDSVGFQDF |
| 2 | 4.63 | 3/3 | EGDSLRYYYAN | GKNNRPS | SLQPSSGFQVF |
| 3 | 5.35 | 1/3 | EGDSLRYYYAN | VKNNVPS | SSRASSGFQVF |
| 4 | 1.28 | 3/3 | EGDSLRYYAAN | GKNNRPS | SSRDSSGMQWF |
| 5 | 4.21 | 1/3 | EGDSLRYYYAL | GKNNNPS | SSRDSSGFQLF |
| 6 | 3.40 | 3/3 | CGDSLRYYYAN | GKNNRPS | SSHDSSGFQVC |
| 7 | not detected | 0/3 | EGDSLRNYYAN | RKNNRPS | SSRDSSGQQVF |
| 8 | 3.36 | 3/3 | CGDSLREYYAN | GKNGRPS | SSRDSSGFQVF |
| 9 | 3.58 | 1/3 | EGCSLRYYYAN | GKNFRES | SSRDSSGFQVF |
| 10 | 5.45 | 1/3 | EGDSLIYYYYN | GKNNRPS | NSRDSSGFQVF |
| 11 | not detected | 0/3 | EGDSLRYPYAN | PKNNRPS | SSRDSSGHQVF |
| 12 | 3.34 | 3/3 | EGDVLRYYYAN | GKNNRPS | SSRDSDGFQVF |
| 13 | 3.82 | 3/3 | EGDSLRYYYAN | GKNNRHS | DSGDSSGFQVF |
| 14 | 1.45 | 3/3 | EGDSLRYYYAN | GKNNRPS | SSRCSSGRQVY |
| 15 | 1.32 | 3/3 | EGDSLRYRCAN | GKNNRPF | SSRDSSGFQVF |
| 16 | 2.48 | 3/3 | EGDSLRAYYAN | GKNHRPS | SSRDSSGFQVE |
| 17 | 3.22 | 3/3 | KGDSKRYYYAN | GKNNRPS | SSRFSSGFQVF |
| 18 | 5.03 | 2/3 | EGDSQRYYYAN | GKNNAPS | SSRMSSGFQVF |
| 19 | 2.30 | 2/3 | EGDSLRWYYAN | GKNNRPS | HHRDSSGFQVF |
| 20 | 3.76 | 3/3 | EGDSLRYYYAN | GKNPRPA | SSRDSSGFHVF |
| 21 | 3.37 | 3/3 | EGSSLRYYYAN | GKNNRMS | SSRDSSGFQHF |
| 22 | 5.17 | 1/3 | EGDSADYYYAN | GKENRPS | SSRDSSGFQVF |
| 23 | not detected | 0/3 | EGDSLLYYYAN | GKHNRPS | SSRDSSGFQDF |
| 24 | 3.41 | 2/3 | EGDSLRYYYAN | GAANRPS | SSDDSSGFQVF |
| 25 | 5.54 | 1/3 | EGTSLRVYYAN | GKNNRPS | SSRDSEGFQVF |
| 26 | 5.33 | 2/3 | EGDSLRYYKAC | GKNNRPS | SSRDSSGFQVF |
| 27 | 4.05 | 3/3 | EGDVLRPYYAN | GKNNRPS | NSRDSSGFQVF |
| 28 | 3.46 | 2/3 | EGDSLRYYYAN | GTNNRPS | SSRDSLGFQVF |
| 29 | 3.04 | 3/3 | EGRSLRYYYAN | GKNNKPS | YSRDSSGFQVF |
| 30 | 3.60 | 3/3 | EGDSLFYYYAN | GKNSRPS | SSRDSSGFRVF |
| 31 | 4.00 | 2/3 | EGDSLRYYYAN | GKNNRPS | SNRDSIGVQVF |
| 32 | 5.03 | 1/3 | EGDSLRYYYAE | GKNNRPS | SSRDSSGVQVM |
| 33 | 3.84 | 2/3 | EYDSLRYYYAN | GKNNRPS | SSRDSSGKQVF |
| 34 | 4.09 | 3/3 | EGDKLRCYYAN | GKMNRPS | SSRDSSGFQVF |
| 35 | 3.45 | 3/3 | EGDSLRYYYKN | GKNNRPS | SSRDSSGFQTG |
| 36 | not detected | 0/3 | EGDNLRGYYAN | GKNNRPS | SSRDSSLFQVF |
| 37 | not detected | 0/3 | EENSLRYYYAN | GKNNRPS | SSRDSSGFDVF |
| 38 | 4.19 | 3/3 | EGDSLRYYYAN | GQNNRPS | HSRDSSGFQVF |
| 39 | 5.31 | 1/3 | EGDSLRYYYAN | QPNNRPS | SSRDSSEFQVF |
| 40 | 3.81 | 2/3 | EGDSLRYYYAE | GKNNRPS | SSRDSQGFVVF |
| 41 | 5.32 | 1/3 | EGDGLRYYYAN | MKNNRPS | SSFDSSGFQVF |
| 42 | 4.89 | 1/3 | EGDSLVEYYAN | GKNNRPS | SSRDSSGFCVF |
| 43 | 2.19 | 3/3 | EGESLREYYAN | GKNNRPS | WSRDSSGFQVF |
| 44 | 3.94 | 3/3 | DGDSLRYYYAN | GKNNRPS | ASRHSSGFQVF |
| 45 | 3.83 | 2/3 | EGDSLRYYCAM | GKANRPS | SSRDSSGFQVF |
| 46 | 3.94 | 1/3 | EGDSLRYYYAW | TKNNAPS | SSRDSSGFQVF |
| 47 | 1.37 | 3/3 | EGDSLRYGYAN | GANNRPN | SSRDSSGFQVF |
| 48 | 3.68 | 3/3 | WGDSLRYYYAN | GKNNRPS | CCRDSSGFQVF |
| 49 | 2.12 | 3/3 | EGDSLRYYPAN | GKNNRPS | SSRASSCFQVF |
| 50 | 3.29 | 3/3 | EGDSLRYYYAN | GKMNRPS | SSRDSSGFGVF |
| 51 | 2.11 | 3/3 | EGDSLRYYYAN | GKNNRPE | SSRDSLGFQIF |
| 52 | 3.61 | 3/3 | EGDSLRYYDAF | GKNQRPS | SSRDSSGFQVF |
| 53 | not detected | 0/3 | YGDELRYYYAF | GKNNRPS | SSRDSSGFQVF |
| 54 | 4.48 | 3/3 | EGDSTRYYYAN | GKNNRLS | RSRDSSGFQVF |
| 55 | 2.02 | 3/3 | EGDSLRYYYAN | GKNNRPS | SWRESSGFQVW |
| 56 | 4.10 | 3/3 | EGDSLRYYYAN | GKNNYPS | SSRDSSGFQHF |
| 57 | 4.83 | 1/3 | EGDSLRYYYAN | GKNNRHS | SSQDSEGFQVF |
| 58 | 4.07 | 1/3 | EGDSLRYYYAN | GKNNRDS | SSWDSSCFQVF |
| 59 | not detected | 0/3 | EGDSWRYYYAN | GKNNRPS | SSVISSGFQVF |
| 60 | 1.92 | 3/3 | EGDSLYYYSAN | GKNNRPS | SSRLSSGFQVF |
| 61 | 4.07 | 2/3 | EGDSVRYYYAN | GKNNRPS | SSRDSSGFQFF |
| 62 | 4.34 | 2/3 | EGDSLRYYYAN | GKINRPS | SSRDSSGFSAF |
| 63 | 2.37 | 3/3 | EGGSLRYYYAN | GKNNRPS | SSWDSSGFQVF |
| 64 | 3.65 | 2/3 | EIDSLRYVYAN | GKNNRPS | SSRDSSGFMVF |
| 65 | 3.80 | 2/3 | ELDSLRYYYKN | GWNNRPS | SSRDSSGFQVF |
| 66 | 4.35 | 3/3 | EGDSLRYYYAN | GWHNRPS | ESRDSSGFQVF |
| 67 | 3.79 | 3/3 | EGDFLRYYMAN | GKNNNPS | SSRDSSGFQVF |
| 68 | 3.76 | 1/3 | ELDSLRYYLAN | GKNNRPS | SSRDSSGFQWF |
| 69 | 3.00 | 3/3 | EGDSLRYYRAN | GKNNRQS | SSRDSQGFQVF |
| 70 | 2.43 | 3/3 | EGISLRPYYAN | GKNNRPS | SSRDSSGFQVH |
| 71 | not detected | 0/3 | EGDSLRYYYMN | GWNNRPS | SSRDSSIFQVF |
| 72 | 1.62 | 3/3 | EGDSLQYYYAN | GKNNRPS | SARDSSGFQVF |
| 73 | 2.74 | 3/3 | EGDSLRYYYAN | GKNNRPS | SSRCSSGFINF |
| 74 | 4.00 | 2/3 | EGDSLRYYYAN | AKQNRPS | SSRDSSGFQVF |

The opening 4 entries, copied out:

{"CDR-L1": "EGDSLRYYDAN", "CDR-L2": "GKNNRPS", "CDR-L3": "SSRDSVGFQDF", "mean log10 Kd (nM)": "2.98", "seen in": "2/3"}
{"CDR-L1": "EGDSLRYYYAN", "CDR-L2": "GKNNRPS", "CDR-L3": "SLQPSSGFQVF", "mean log10 Kd (nM)": "4.63", "seen in": "3/3"}
{"CDR-L1": "EGDSLRYYYAN", "CDR-L2": "VKNNVPS", "CDR-L3": "SSRASSGFQVF", "mean log10 Kd (nM)": "5.35", "seen in": "1/3"}
{"CDR-L1": "EGDSLRYYAAN", "CDR-L2": "GKNNRPS", "CDR-L3": "SSRDSSGMQWF", "mean log10 Kd (nM)": "1.28", "seen in": "3/3"}

Nonspecific signal, from three strains lacking the peptide, appeared in 28% of pairings of library AAYL52, centred on 3.91 (5% of these signals below 2.90); values are not corrected for it.

Values reported by Engelhart et al. 2022, doi:10.1038/s41597-022-01779-4 (FLAb copy).